# AlphaSeq binding of Ab-14 light chain variants to a spike HR2 peptide

Binding partner: SARS-CoV-2 spike HR2 peptide, sequence PDVDLGDISGINAS.

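The starting antibody came from a phage panning campaign against this peptide. Variants in AAYL50 differ from the parent at up to three CDR positions; double and triple changes were sampled at random. AlphaSeq pools MATa yeast showing the antibodies with MATalpha yeast showing the peptide. Pairs that bind mate more often; barcode pairs of the diploids are counted by sequencing. The ratio of observed to expected reads was calibrated, replicate by replicate, on BCL2-family standards whose Kd was known from biolayer interferometry. Mating was done three times.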

Parent: Ab-14, a human scFv built as VH, a (GGGGS)3 linker, VL. Only the CDRs of the light chain vary.
VH: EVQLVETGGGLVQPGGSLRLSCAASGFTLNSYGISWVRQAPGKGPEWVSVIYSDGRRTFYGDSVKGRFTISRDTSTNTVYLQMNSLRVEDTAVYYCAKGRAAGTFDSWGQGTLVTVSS
VL: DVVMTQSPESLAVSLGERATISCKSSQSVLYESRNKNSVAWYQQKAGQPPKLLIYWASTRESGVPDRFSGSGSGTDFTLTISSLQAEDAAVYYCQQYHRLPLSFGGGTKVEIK

Changes read parent residue, position, new residue, counted from the first residue of the VL shown. Numbers give log10(Kd / nM), so 0 is 1 nM and 3 is 1 µM. Smaller is tighter. Replicates are averaged; those with no signal do not enter the mean. "ND" means that the variant was in the library but no mating with the target was seen in that replicate; the authors take this as a sign of poor binding, and no number exists. Background: pairings of library AAYL50 with three empty control strains gave a value in 18% of cases (median 4.19, 5th percentile 2.99). Values in that range, when seen in few replicates, are hard to tell from nonspecific mating. The control count says in how many pairings with the empty strains this scFv gave a signal, with their mean in brackets.

changes | replicates, log10 nM | mean log10 Kd (nM) | signal with controls
N35V R99M L102V | ND 3.90 ND | 3.90 | 1 of 9 (2.87)
K24V E32C R60C | ND ND ND | ND | 0 of 9
K24H N35Y S103D | ND 3.50 ND | 3.50 | 0 of 9
L30T S33Q A40I | ND 4.47 4.12 | 4.29 | 1 of 9 (3.54)
S33G S58E Q95N | ND ND 4.24 | 4.24 | 3 of 9 (4.69)
Q27L N35C | 1.84 1.93 2.00 | 1.92 | 7 of 9 (4.51)
L30W A57D S58C | ND ND 4.50 | 4.50 | 2 of 9 (3.75)
R60T Q96C P101A | 4.36 3.72 4.60 | 4.23 | 7 of 9 (3.93)
K24H L30F L102P | 0.96 1.17 1.47 | 1.20 | 6 of 9 (4.16)
S33D R34V H98L | 0.80 1.09 1.02 | 0.97 | 2 of 9 (5.06)
Y31W V39Y | ND 4.08 ND | 4.08 | 0 of 9
N37F S38Q S103K | ND ND ND | ND | 2 of 9 (4.40)
K24N N35D S58K | 1.36 1.42 1.78 | 1.52 | 2 of 9 (2.62)
Y31K S38Q Y97S | ND ND ND | ND | 2 of 9 (4.22)
S28P E61P L100G | ND ND 4.10 | 4.10 | 1 of 9 (5.60)
K24H E32I W56H | 1.17 1.68 1.32 | 1.39 | 3 of 9 (3.87)
N35W V39I E61I | 1.77 1.61 1.62 | 1.67 | 1 of 9 (3.35)
S26K A57C | 3.91 3.38 ND | 3.65 | 2 of 9 (3.32)
L30P R34G H98K | 1.08 1.09 1.19 | 1.12 | 4 of 9 (3.77)
Y31K S38M L102Y | ND ND ND | ND | 1 of 9 (2.34)
Y31N S62G Y97W | 2.28 2.34 2.17 | 2.26 | 0 of 9
Q95F Y97I | 0.83 1.11 0.98 | 0.97 | 1 of 9 (4.62)
K24W S26T L30P | 2.24 2.15 ND | 2.19 | 0 of 9
S25A R60D R99V | ND 4.98 ND | 4.98 | 4 of 9 (4.86)
S28F S33Q P101Y | ND ND ND | ND | 0 of 9
T59D Q95W Y97I | 1.63 1.76 1.81 | 1.73 | 1 of 9 (4.31)
R34E S38K R60K | 2.88 2.81 3.49 | 3.06 | 1 of 9 (4.24)
Y31N N35D W56H | -0.10 0.21 -0.01 | 0.03 | 8 of 9 (5.43)
L30H Y31W L102K | ND ND ND | ND | 0 of 9
S58N E61H R99M | 1.16 1.67 1.49 | 1.44 | 2 of 9 (4.13)
N35W | 1.39 1.41 1.60 | 1.47 | 0 of 9
L30W S58V Q96W | 4.56 ND 4.66 | 4.61 | 2 of 9 (4.44)
S33K R34K N35L | 2.22 2.13 2.28 | 2.21 | 4 of 9 (4.23)
R60T S62D S103M | 3.59 1.89 2.10 | 2.53 | 1 of 9 (4.47)
E32N S58A Q96M | ND ND ND | ND | 0 of 9
N35W Y97T H98K | ND ND ND | ND | 0 of 9
S28M A40P R60V | ND ND ND | ND | 1 of 9 (3.77)
E32G K36C A40W | ND ND ND | ND | 0 of 9
S25H V29H S33F | 1.61 2.14 1.81 | 1.85 | 0 of 9
R99Q S103I | 0.82 0.54 0.79 | 0.72 | 0 of 9
V39K Q95K | ND ND ND | ND | 1 of 9 (4.41)
S28K N35P A57D | ND ND ND | ND | 0 of 9
V29C E32K S103F | ND ND ND | ND | 0 of 9
S28D S62N Q96S | 1.14 1.28 1.40 | 1.28 | 2 of 9 (4.50)
S38T V39P P101M | ND 4.75 ND | 4.75 | 2 of 9 (4.42)
V39T R60I L102T | ND ND ND | ND | 0 of 9
L30K W56P | ND 3.84 4.86 | 4.35 | 4 of 9 (4.50)
Y31T S38V L100W | ND ND ND | ND | 1 of 9 (3.31)
K24S N35Y L100V | 5.54 5.53 ND | 5.53 | 4 of 9 (4.03)

Top 3 of the variants detected in all replicates, tightest first:

| changes | replicates, log10 nM | mean log10 Kd (nM) | signal with controls |
|---|---|---|---|
| Y31N N35D W56H | -0.10 0.21 -0.01 | 0.03 | 8 of 9 (5.43) |
| R99Q S103I | 0.82 0.54 0.79 | 0.72 | 0 of 9 |
| Q95F Y97I | 0.83 1.11 0.98 | 0.97 | 1 of 9 (4.62) |

Reference: Engelhart et al. 2022, doi:10.1038/s41597-022-01779-4. File: FLAb, binding data.